These are literature values, as cited in patent publication US12006290B2, “Crystalline norpsilocin compounds” (CAAMTECH, INC., priority 2020, dated 2024).

Chains of the proteins cited; added tags and fusions are not shown.
UniProt P28223, whole entry: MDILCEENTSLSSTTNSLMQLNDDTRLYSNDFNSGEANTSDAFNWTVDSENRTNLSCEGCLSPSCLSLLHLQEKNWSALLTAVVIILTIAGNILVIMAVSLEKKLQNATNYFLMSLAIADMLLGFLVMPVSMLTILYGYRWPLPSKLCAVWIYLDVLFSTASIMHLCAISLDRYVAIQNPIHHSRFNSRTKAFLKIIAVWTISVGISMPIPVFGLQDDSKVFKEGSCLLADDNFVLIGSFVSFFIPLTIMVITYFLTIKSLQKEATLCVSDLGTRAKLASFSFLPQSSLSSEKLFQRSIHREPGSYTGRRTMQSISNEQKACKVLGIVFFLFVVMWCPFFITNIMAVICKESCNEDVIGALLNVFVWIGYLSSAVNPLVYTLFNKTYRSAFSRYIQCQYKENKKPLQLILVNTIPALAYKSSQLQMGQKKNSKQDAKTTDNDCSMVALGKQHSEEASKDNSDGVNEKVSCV

The data set has as its target human serotonin 2a receptor (Homo sapiens, UniProt P28223). The settings on record: synthetic norpsilocin compared to psilocin.

Turning to `CNCCc1c[nH]c2cccc(O)c12` [norpsilocin, 4-hydroxy-N-methyltryptamine], the “agonist potency at the human serotonin 2a receptor” value is on record as “as potent if not more compared to psilocin”.
